The assay concerns LNCaP. Kind of assay: Inhibition of prostate specific antigen secretion in human LNCAP cells expressing androgen receptor in presence of charcoal stripped serum. It counts as functional, cell-based. In short, it runs like this: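 LNCaP/AR cells were made by viral infection with an AR cDNA to express 3–5 fold higher AR levels, mimicking CRPC. They were assayed in charcoal-stripped serum to mimic androgen depletion. Read-out was PSA level, with DMSO as the vehicle.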

Structures are written as SMILES.

Take `CNC(=O)c1ccc(N2C(=S)N(c3ccc(C#N)c(C(F)(F)F)c3)C(=O)C2(C)C)cc1F`: the inhibition result is “Dose-dependent effect”.

(Values after ChEMBL document CHEMBL1155462, “Structure-activity relationship for thiohydantoin androgen receptor antagonists for castration-resistant prostate cancer (CRPC)” (J Med Chem, 2010).)
